Three compounds from ChEMBL document CHEMBL5726854, “EZH2 inhibitors” (2019) can be followed below.

Sequences of proteins named here, by UniProt entry; tags and fusion partners are left off.
UniProt Q15910, whole entry: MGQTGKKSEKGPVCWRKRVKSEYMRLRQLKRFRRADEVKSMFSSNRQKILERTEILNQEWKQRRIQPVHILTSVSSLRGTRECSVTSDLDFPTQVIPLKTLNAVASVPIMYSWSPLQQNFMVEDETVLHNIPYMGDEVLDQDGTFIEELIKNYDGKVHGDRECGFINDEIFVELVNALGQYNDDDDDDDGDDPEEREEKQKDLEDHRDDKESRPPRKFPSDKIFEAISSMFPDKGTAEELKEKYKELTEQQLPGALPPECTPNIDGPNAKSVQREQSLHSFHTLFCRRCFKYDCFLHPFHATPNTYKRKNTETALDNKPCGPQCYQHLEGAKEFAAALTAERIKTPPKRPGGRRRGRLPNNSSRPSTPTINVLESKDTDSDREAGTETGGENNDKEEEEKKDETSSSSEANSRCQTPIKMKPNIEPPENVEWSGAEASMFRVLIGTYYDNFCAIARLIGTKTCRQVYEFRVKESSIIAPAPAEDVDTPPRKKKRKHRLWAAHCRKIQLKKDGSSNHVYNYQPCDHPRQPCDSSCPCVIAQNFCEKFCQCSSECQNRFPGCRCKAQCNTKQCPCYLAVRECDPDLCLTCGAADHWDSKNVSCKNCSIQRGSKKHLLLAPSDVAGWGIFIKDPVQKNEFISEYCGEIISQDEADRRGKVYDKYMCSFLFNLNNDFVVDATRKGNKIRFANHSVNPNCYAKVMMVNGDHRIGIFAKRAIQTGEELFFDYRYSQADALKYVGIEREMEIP

Some results are limits rather than exact numbers.

As a reminder, the IC50 is the concentration that gives 50% inhibition. A low value points to greater potency in that assay.

The experiment addresses Histone-lysine N-methyltransferase EZH2 (Homo sapiens, UniProt Q15910). Put plainly: EZH2 enzymatic activity: Ten-point dose-response curves for a subset of compounds shown in Table 1 were determined using a Transcreener® EPIGEN Methyltransferase HTS assay using purified EZH2 enzyme (BellBrook Labs). In this assay, the S-adenosylhomocysteine (SAH) generated by the transfer of the methyl group from S-adenosyl methionine (SAM) to purified histone 3.3 protein by EZH2 is ….
For the compound `COC(c1cc(Cl)c2c(c1Cl)C(=O)N(Cc1c(=O)[nH]c(C)c3c1ccn3C)CC2)C1COC1` (stereo not drawn), the 50% inhibitory concentration (IC50) was 1 nM. Regarding `Cc1[nH]c(=O)c(CN2CCc3c(Cl)cc(N4CC5(CCOCC5)C4)c(Cl)c3C2=O)c2c1NCC2`, the IC50 is less than 0.5 nM. Under `COC(c1cc(Cl)c2c(c1Cl)C(=O)N(Cc1c(=O)[nH]c(C)c3ccoc13)CC2)C1CNC1` (stereo not drawn) stands 12 nM.
